In PubChem BioAssay (Tox21):
Several values for one entry are separate records, joined by “and”; a condition that tells them apart may be missing. Identical values can stand only once. This is a selection; strong and weak results do not stand in their true shares. Inconclusive results are not listed. Where a structure was tested more than once in an assay, its records may differ in their call. Activity calls are given as the source filed them. Calls come from the whole dose curve; as a rule, active = well fitted activation curve with a large enough effect in the repeat runs; inconclusive = weak or mixed curves; inactive = flat fitted curve, though single readings scatter.

Assay: A CellTox Green Cytotoxicity Assay to monitor cytotoxicity in HEK293 cells - 16 hour (AID 1224888); note: nearly all actives have a fitted effect of over 35% in size
Conditions: CellTox Green fluorescence; series mostly up to 76.8 µM; activity change: at the top concentration
Description: National Center for Advancing Translational Sciences [NCATS]
NIH Chemical Genomics Center [NCGC]
U.S. Environmental Protection Agency [EPA]
National Institutes of Environmental Health Sciences [NIEHS]
National Toxicology Program [NTP]
Cell-based models are critical for drug discovery. Determining the natural cytotoxic effects resulting from test compounds is an essential research activity. A CellTox Green Cytotoxicity Assay to monitor cytotoxicity in real time of continues cell culture during 40 hours of the compound treatment was used to screen Tox21 10K library compounds in Hek293 cells. CellTox Green Cytotoxicity Assay is a nonlytic, homogeneous, biofluorescent method to measure cytotoxicity in cell culture after experimental manipulation. The assay system uses a proprietary asymmetric cyanine dye that is excluded from viable cells but preferentially stains the dead cell's DNA. […] Viable cells produce no appreciable increases in fluorescence. Therefore, the fluorescence signal produced by the binding interaction with dead cell DNA is proportional to cytotoxicity.
The mixture of Hek293 cell suspension and reagents were dispensed at 600cells/6 ul/well in 1536-well tissue culture treated black solid bottom plates using a Multidrop dispenser. After the assay plates were incubated at a 37 C/5% CO2 incubator for 5 hours, 23 nL of compounds dissolved in DMSO, positive and negative controls was transferred to the assay plate by a pintool work station. The plates were incubated at 37 C for 40 hours. The fluorescence intensity were measured at 0h, 8h, 16h, 24h, 32h and 40h time points using ViewLux plate reader during compound treatment.
% is set by controls: 0 for no effect and ±100 for the full control effect; potency is the fitted concentration of half-maximal effect.

Row | Structure (SMILES) | activity change | Potency
1 | CCCCOP(OCCCC)OCCCC | inactive: -4.7% | 
2 | CCCCO[P+](=O)OCCCC |  | inactive
3 | O=P(Cl)(Cl)c1ccccc1 | inactive: -14.3% | 
4 | CN(C(=O)Cc1ccc(Cl)c(Cl)c1)[C@H]1CC[C@@]2(CCCO2)C[C@@H]1N1CCCC1 | inactive: -21.1% [at 35.3 µM, active compounds read high] | 
5 | CN(C(=O)Cc1cccc2occc12)[C@H]1CC[C@@]2(CCCO2)C[C@@H]1N1CCCC1 | inactive: -3.53% | 
6 | CC(C)OP(=S)(OC(C)C)SCCNS(=O)(=O)c1ccccc1 | inactive: -2.49% | 
7 | CCC(C)(OOC(C)(C)C)OOC(C)(C)C | inactive: -2.03% [at 15.8 µM, active compounds read high] | 
8 | COC(=O)Cl | inactive: 2.02% | 
9 | O=[N+]([O-])c1ccc(S(=O)(=O)O)c([N+](=O)[O-])c1 | inactive: 1.59% | 
10 | COP(=S)(Cl)OC | inactive: -10.8% | 
11 | ClP(Cl)c1ccccc1 | inactive: 1.89% | 
12 | CCNC(C)Cc1ccc2c(c1)OCO2 (centres undefined) | inactive: -6.86% | 
13 | O=C1C2CC=CCC2C(=O)N1SC(Cl)(Cl)C(Cl)Cl (centres undefined) |  | active: 39.2 µM and active: 9.77 µM
14 | O=C(Cl)OCCOC(=O)Cl | inactive: -3.14% | 
15 | CN(N=O)C(=N)N[N+](=O)[O-] | inactive: 1.5% | 
16 | CN(C(=O)Cc1ccccc1)[C@H]1CC[C@@]2(CCCO2)C[C@@H]1N1CCCC1 | inactive: 6.51% [at 35.3 µM, active compounds read high] | 
17 | O=[N+]([O-])c1ccc([N+](=O)[O-])cc1 | inactive: -25.6% | 
18 | CCCCCCCCCCCCCC[P+](CCCCCC)(CCCCCC)CCCCCC |  | active: 24.5 µM
19 | O=[p+]1oc2ccccc2c2ccccc21 (centres undefined) | inactive: 27.8% | 
20 | Cc1cc([N+](=O)[O-])c(O)c([N+](=O)[O-])c1 | inactive: -17% | 
21 | NC(=O)Nc1ccc([As](=O)(O)O)cc1 |  | inactive
22 | O=[P+](Oc1ccccc1)Oc1ccccc1 | inactive: 4.19% | 
23 | CCOC(=O)Cl | inactive: 0.163% | 
24 | O=[As]c1ccccc1 (centres undefined) | inactive: 36.7% | 
25 | CCCCC(CC)CO[P+](=O)OCC(CC)CCCC (centres undefined) | inactive: -11.8% | 
26 | CC(C)CCCCCCCOP(OCCCCCCCC(C)C)Oc1ccccc1 | inactive: 8.21% | 
27 | O=C(Cl)Oc1ccccc1 | inactive: -4.71% | 
28 | CCOP(=S)(CC)Sc1ccccc1 (centres undefined) | inactive: 2.24% | 
29 | O=P(Cl)(Oc1ccccc1)Oc1ccccc1 | inactive: 5.77% | 
